# Earlier results in paper PMC12120261, “Responsiveness of different MET tumour alterations to type I and type II MET inhibitors” (Clinical and Translational Medicine, 2025).
# Test system: MET G1163R
# Parameters: method as in PMID 31279006
smiles,measurement,value
CN1CCC(COc2cnc(-c3cccc(Cn4nc(-c5cccc(C#N)c5)ccc4=O)c3)nc2)CC1 [tepotinib],sensitivity of the solvent front G1163R mutation,remains sensitive
